From patent US20250092067A1, “APT1 and APT2 Inhibitors and Uses Thereof” (Cornell University, priority 2021, published 2025) come the findings set out here.

The chains behind the UniProt entries cited, without tags or fusion partners. Where a name states a change or a piece, a line headed by the entry shows the natural chain unless it says otherwise.
UniProt O75608: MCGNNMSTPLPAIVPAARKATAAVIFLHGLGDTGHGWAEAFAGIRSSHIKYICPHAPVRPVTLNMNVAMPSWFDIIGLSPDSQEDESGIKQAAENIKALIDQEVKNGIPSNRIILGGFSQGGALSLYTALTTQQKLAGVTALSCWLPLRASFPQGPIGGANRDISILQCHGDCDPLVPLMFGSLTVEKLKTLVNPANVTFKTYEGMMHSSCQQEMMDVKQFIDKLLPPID
UniProt O95372: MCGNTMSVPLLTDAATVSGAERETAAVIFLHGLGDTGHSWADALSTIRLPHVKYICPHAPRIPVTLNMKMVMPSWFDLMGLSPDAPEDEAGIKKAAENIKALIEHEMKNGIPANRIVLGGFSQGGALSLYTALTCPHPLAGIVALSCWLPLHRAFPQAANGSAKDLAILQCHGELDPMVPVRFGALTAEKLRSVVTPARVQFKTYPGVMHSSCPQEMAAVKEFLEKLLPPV

In general, IC50 refers to the concentration that gives 50% inhibition.

Like-named read-outs stand apart in the source and are kept apart here.

The target in one test is APT1 (Homo sapiens, UniProt O75608). The test can be described thus: APT1 enzymatic assay, resorufin acetate as fluorogenic substrate. Type of test: biochemical. To be noted: for APT2 selectivity / inhibition of APT1: qualitative, FIG. 4; for IC50: read-out: IC50 (μM) APT1.
Another test concerns the target APT2 (Homo sapiens, UniProt O95372). The test can be described thus: APT2 enzymatic assay, resorufin acetate as fluorogenic substrate. Type of test: biochemical.

Regarding `COc1ccc(N2CCN(C(=O)c3cc4cc(B(O)O)c5ccccc5c4s3)CC2)cc1`, the “APT2 selectivity / inhibition of APT1” value at APT1 is given as “lost APT2 selectivity”.

In the case of `CCOP(=O)(OCC)c1cc2cc(C(=O)N3CCN(c4ccc(OC)cc4)CC3)sc2c2ccccc12`, on APT1, the “APT2 selectivity / inhibition of APT1” value is listed as “lost APT2 selectivity”. In addition, the IC50 is 1.6 µM at APT1 (Table 1, resorufin acetate as the substrate); 1 to 40 µM at APT1 (Table 2, class symbols); 4.92 µM on APT2 (read-out: IC50 (μM) APT2, Table 1, resorufin acetate as the substrate); 1 to 40 µM at APT2 (read-out: IC50 (μM) APT2, Table 2, class symbols); 5 µM at APT2 (read-out: IC50 APT2, Example 3 (FIG. 4), 15 min pre-incubation).
